This note sets out measurements from PMC5298005 (Clinical Pharmacology in Drug Development, 2016).

Usually Tmax stands for the time from dosing to the highest level.

The nature of this data set: Phase 1 drug-interaction study, sirolimus with isavuconazole: pharmacokinetics. The class given is in vivo, human (healthy subjects). Particulars: both, human, whole blood, po, 2 mg.

`CO[C@H]1C[C@@H]2CC[C@@H](C)[C@@](O)(O2)C(=O)C(=O)N2CCCC[C@H]2C(=O)O[C@H]([C@H](C)C[C@@H]2CC[C@@H](O)[C@H](OC)C2)CC(=O)[C@H](C)/C=C(\C)[C@@H](O)[C@@H](OC)C(=O)[C@H](C)C[C@H](C)/C=C/C=C/C=C/1C` [Sirolimus, sirolimus]: the time to peak (Tmax) stood at 2.5 h.
